Experimental data published in US6387406B1, “Copolymer compositions for oral delivery” (Supratek Pharma Inc., priority 1992, dated 2002).

Test system: vesicular stomatitis virus
Type: cell-based
Conditions: added 24 hours before 100-fold lethal dose of virus, read 24 hours after

For “Prep. D: Example 25: nonmodified native Interferon-α2”, the Antiviral titer was 2×10^5.
